Columns and labels:
[1] = target: 5-hydroxytryptamine receptor 1A (Homo sapiens, UniProt P08908); test: Tested in vitro for the inhibition of [3H]8-OH-DPAT binding to 5-hydroxytryptamine 1A receptor, expressed in cloned CHO cells.; type: cell-based
D(3) dopamine receptor = D(3) dopamine receptor (Homo sapiens, UniProt P35462); test: biochemical

Amino acid sequences for entries named in this document (tags omitted).
UniProt P08908, whole entry: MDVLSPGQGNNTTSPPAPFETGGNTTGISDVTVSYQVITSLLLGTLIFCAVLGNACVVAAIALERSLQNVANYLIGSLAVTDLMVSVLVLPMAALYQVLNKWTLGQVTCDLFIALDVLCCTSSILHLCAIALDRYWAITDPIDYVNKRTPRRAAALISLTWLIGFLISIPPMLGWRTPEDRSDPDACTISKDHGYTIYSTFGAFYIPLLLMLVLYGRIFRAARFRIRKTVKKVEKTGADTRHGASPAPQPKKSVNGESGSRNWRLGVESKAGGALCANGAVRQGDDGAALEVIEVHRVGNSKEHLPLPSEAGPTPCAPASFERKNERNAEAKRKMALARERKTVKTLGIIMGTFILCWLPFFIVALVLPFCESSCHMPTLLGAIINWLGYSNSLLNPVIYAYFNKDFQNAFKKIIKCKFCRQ
UniProt P35462, whole entry: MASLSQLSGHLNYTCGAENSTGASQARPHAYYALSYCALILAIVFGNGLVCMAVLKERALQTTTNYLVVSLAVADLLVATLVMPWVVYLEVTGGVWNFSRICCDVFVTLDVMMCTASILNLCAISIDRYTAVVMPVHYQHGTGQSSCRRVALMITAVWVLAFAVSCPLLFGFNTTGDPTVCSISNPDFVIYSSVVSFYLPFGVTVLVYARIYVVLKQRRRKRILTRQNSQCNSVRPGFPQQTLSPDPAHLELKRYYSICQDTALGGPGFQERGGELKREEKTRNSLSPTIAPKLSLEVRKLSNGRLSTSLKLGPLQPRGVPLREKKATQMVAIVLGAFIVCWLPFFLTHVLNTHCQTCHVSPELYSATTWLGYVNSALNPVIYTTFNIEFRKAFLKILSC

Compound | Ki [1] | Ki (D(3) dopamine receptor)
CCCN1CC[C@H]2c3c(O)cccc3CC[C@H]21 | 0.2 nM | 
CCCN(CCC)C1CCc2cccc(O)c2C1 (configuration not stated) [8-OH-DPAT] |  | 259 nM
